# Membrane permeability of cyclic peptides

Collected by the curators of CycPeptMPDB (Li et al. 2023) from Naylor et al. 2018, doi:10.1021/acs.jmedchem.8b01259.

PAMPA is the parallel artificial membrane permeability assay, which has no cells and reads passive diffusion.
RRCK values come from monolayers of low-efflux MDCK cells.
P is given in units of 10^-6 cm/s (from log10 values with two decimals); larger means faster passage.

| PAMPA (10^-6 cm/s) | RRCK (10^-6 cm/s) | compound |
|---|---|---|
| 1.6 | 2.3 | CC(C)C[C@@H]1NC(=O)[C@H](Cc2ccccc2)NC(=O)[C@H]2CCCN2C(=O)[C@H](CC2CCCCC2)NC(=O)[C@H](CC2CCCCC2)NC(=O)[C@@H](CC(C)C)NC1=O |
| 1.3 | 4.1 | CC[C@@H]1NC(=O)[C@@H](CC)NC(=O)[C@H](CC(C)C)NC(=O)[C@H](Cc2ccccc2)NC(=O)[C@H]2CCCN2C(=O)[C@H](CC(C)C)NC1=O |
| 2.4 | 3.1 | CC[C@@H]1C(=O)N(C)[C@@H](C)C(=O)N[C@@H](CC(C)C)C(=O)N2CCC[C@@H]2C(=O)N(C)[C@@H](C)C(=O)N[C@@H](CC(C)C)C(=O)N1C |
| 0.066 | 0.6 | CCC[C@@H]1C(=O)N(C)[C@@H](CC2CCCCC2)C(=O)N[C@@H](CC2CCCCC2)C(=O)N2CCC[C@@H]2C(=O)N(C)[C@@H](Cc2ccc(O)cc2)C(=O)N[C@@H](CC(C)C)C(=O)N1C |
| 0.049 | 3.2 | CC(C)C[C@@H]1NC(=O)[C@H](Cc2ccccc2)N(C)C(=O)[C@H]2CCCN2C(=O)[C@H](CC2CCCCC2)NC(=O)[C@H](CC2CCCCC2)N(C)C(=O)[C@@H](C)N(C)C1=O |
| 3.2 | 2.2 | CC(C)C[C@@H]1NC(=O)[C@H](Cc2ccc(O)cc2)N(C)C(=O)[C@H]2CCCN2C(=O)[C@H](CC(C)C)NC(=O)[C@H](C)N(C)C(=O)[C@@H](C)N(C)C1=O |
| 1.6 | 6.9 | CC(C)C[C@@H]1NC(=O)[C@H](Cc2ccc(O)cc2)N(C)C(=O)[C@H]2CCCN2C(=O)[C@H](CC(C)C)NC(=O)[C@H](CC(C)C)N(C)C(=O)[C@@H](Cc2ccccc2)N(C)C1=O |
| 4.2 | 4.5 | CC[C@H]1C(=O)N[C@@H](CC(C)C)C(=O)N2CCC[C@@H]2C(=O)N(C)[C@@H](Cc2ccc(O)cc2)C(=O)N[C@@H](CC(C)C)C(=O)N(C)[C@H](C)C(=O)N1C |
| 0.31 | 0.81 | CC(C)C[C@@H]1NC(=O)[C@H](Cc2ccc(O)cc2)NC(=O)[C@H]2CCCN2C(=O)[C@H](CC(C)C)NC(=O)[C@H](CC(C)C)NC(=O)[C@@H](C)NC1=O |
| 8.3 | 19 | CC(C)C[C@@H]1NC(=O)[C@H](Cc2ccccc2)N(C)C(=O)[C@H]2CCCN2C(=O)[C@H](CC(C)C)NC(=O)[C@H](C)N(C)C(=O)[C@@H](C)N(C)C1=O |
| 0.014 | 0.95 | CC[C@@H]1C(=O)N(C)[C@@H](CC2CCCCC2)C(=O)N[C@@H](CC2CCCCC2)C(=O)N2CCC[C@@H]2C(=O)N(C)[C@@H](Cc2ccccc2)C(=O)N[C@@H](CC(C)C)C(=O)N1C |
| 0.66 | 2.3 | CC(C)C[C@@H]1NC(=O)[C@H](Cc2ccc(O)cc2)N(C)C(=O)[C@H]2CCCN2C(=O)[C@H](CC(C)C)NC(=O)[C@H](CC2CCCCC2)N(C)C(=O)[C@@H](CC(C)C)N(C)C1=O |
| 7.9 | 27 | CC(C)C[C@@H]1C(=O)N(C)[C@@H](CC(C)C)C(=O)N[C@@H](C)C(=O)N2CCC[C@@H]2C(=O)N(C)[C@@H](Cc2ccccc2)C(=O)N[C@@H](C)C(=O)N1C |
| 8.1 | 25 | CC(C)C[C@@H]1NC(=O)[C@H](C)N(C)C(=O)[C@H]2CCCN2C(=O)[C@H](CC(C)C)NC(=O)[C@H](CC(C)C)N(C)C(=O)[C@@H](CC(C)C)N(C)C1=O |
| 0.095 | 2.5 | CC(C)C[C@@H]1NC(=O)[C@H](CC2CCCCC2)N(C)C(=O)[C@H]2CCCN2C(=O)[C@H](CC(C)C)NC(=O)[C@H](CC(C)C)N(C)C(=O)[C@@H](CC(C)C)N(C)C1=O |
| 9.3 | 30 | CC(C)C[C@@H]1NC(=O)[C@H](Cc2ccccc2)N(C)C(=O)[C@H]2CCCN2C(=O)[C@H](CC(C)C)NC(=O)[C@H](CC(C)C)N(C)C(=O)[C@@H](C)N(C)C1=O |
| 10 | 26 | CC(C)C[C@@H]1NC(=O)[C@H](Cc2ccccc2)N(C)C(=O)[C@H]2CCCN2C(=O)[C@H](C)NC(=O)[C@H](CC(C)C)N(C)C(=O)[C@@H](CC(C)C)N(C)C1=O |
| 1.5 | 0.46 | C/C=C/C[C@@H](C)[C@@H](O)[C@H]1C(=O)N[C@@H]([C@@H](C)O)C(=O)N(C)CC(=O)N(C)[C@@H](CC(C)C)C(=O)N[C@@H](C(C)C)C(=O)N(C)[C@@H](CC(C)C)C(=O)N[C@@H](C)C(=O)N[C@H](C)C(=O)N(C)[C@@H](CC(C)C)C(=O)N(C)[C@@H](CC(C)C)C(=O)N(C)[C@@H](C(C)C)C(=O)N1C |
| 4.5 | 4.4 | CC[C@H]1NC(=O)[C@H](CC(C)C)NC(=O)[C@H](Cc2ccccc2)NC(=O)[C@H]2CCCN2C(=O)[C@H](CC2CCCCC2)NC(=O)[C@H](CC2CCCCC2)NC1=O |
| 3 | 3.5 | CCC[C@H]1NC(=O)[C@H](CC(C)C)NC(=O)[C@H](Cc2ccccc2)NC(=O)[C@H]2CCCN2C(=O)[C@H](CC2CCCCC2)NC(=O)[C@H](CC2CCCCC2)NC1=O |
| 8.3 | 1.4 | CC(C)C[C@@H]1NC(=O)[C@H](Cc2ccc(O)cc2)NC(=O)[C@H]2CCCN2C(=O)[C@H](CC2CCCCC2)NC(=O)[C@H](CC2CCCCC2)NC(=O)[C@@H](C)NC1=O |

Extract of 2 entries:

{"smiles": "CC(C)C[C@@H]1NC(=O)[C@H](Cc2ccccc2)NC(=O)[C@H]2CCCN2C(=O)[C@H](CC2CCCCC2)NC(=O)[C@H](CC2CCCCC2)NC(=O)[C@@H](CC(C)C)NC1=O", "PAMPA (10^-6 cm/s)": "1.6", "RRCK (10^-6 cm/s)": "2.3"}
{"smiles": "CC(C)C[C@@H]1NC(=O)[C@H](CC2CCCCC2)N(C)C(=O)[C@H]2CCCN2C(=O)[C@H](CC(C)C)NC(=O)[C@H](CC(C)C)N(C)C(=O)[C@@H](CC(C)C)N(C)C1=O", "PAMPA (10^-6 cm/s)": "0.095", "RRCK (10^-6 cm/s)": "2.5"}

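Lipid, pH, incubation time, direction and concentration are not recorded in the data file. Other peptides of the study may be missing here. Entries at the database's floor value (log10 P of -10) are not listed.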